From article PMC9029692, “Targeted Degradation of 53BP1 Using Ubiquitin Variant Induced Proximity” (Biomolecules, 2022) come the findings set out here.

This test deals with T1, RFWD3^WD40 (human, UniProt Q6PCD5 439-774).
T1 construct: RFWD3 (RING finger and WD repeat domain 3), human, C-terminal WD40 domain; also called WD40 domain of RFWD3 (RING finger and WD repeat domain 3); source: provided by Dr. Yufeng Tong; purified
T1 sequence (looked up): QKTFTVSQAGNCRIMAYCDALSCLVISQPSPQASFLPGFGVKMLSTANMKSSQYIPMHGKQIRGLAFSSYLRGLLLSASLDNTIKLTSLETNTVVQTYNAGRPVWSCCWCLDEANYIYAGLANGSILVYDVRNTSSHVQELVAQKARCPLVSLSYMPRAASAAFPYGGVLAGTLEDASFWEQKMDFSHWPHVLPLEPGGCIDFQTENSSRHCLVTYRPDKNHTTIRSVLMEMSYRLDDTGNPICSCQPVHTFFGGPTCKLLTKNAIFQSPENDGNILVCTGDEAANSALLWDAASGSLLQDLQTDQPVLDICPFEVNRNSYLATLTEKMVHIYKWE
The test can be described thus: ELISA; E3 ligase domain (1 µM) immobilised on MaxiSorp plates overnight at 4 °C; serial dilutions of FLAG-tagged UbV, wild type Ub or GST-tagged RPA2 (0-4 µM, 24 points, 1:2) incubated 20 min at room temperature; detected with anti-FLAG or anti-GST HRP conjugate; n = 3. The settings on record: both partners purified. On the technique in general: In an ELISA, binding on a coated surface is turned into a signal by an enzyme label.

B1: GST-tagged RPA2 (natural protein, UniProt P15927 1-270, looked up)
chain: MWNSGFESYGSSSYGGAGGYTQSPGGFGSPAPSQAEKKSRARAQHIVPCTISQLLSATLVDEVFRIGNVEISQVTIVGIIRHAEKAPTNIVYKIDDMTAAPMDVRQWVDTDDTSSENTVVPPETYVKVAGHLRSFQNKKSLVAFKIMPLEDMNEFTTHILEVINAHMVLSKANSQPSAGRAPISNPGMSEAGNFGGNSFMPANGLTVAQNQVLNLIKACPRPEGLNFQDLKNQLKHMSVSSIKQAVDFLSNEGHIYSTVDDDHFKSTDAE
notes: RPA2 (replication protein A subunit, RPA32); also called RPA32
As usually defined, the EC50 is the concentration needed to bring the measured effect to its halfway point. Consider B1, for which the EC50 was 152 nM. That is a sub-micromolar value.
